# Target: recombinant human CCR5 receptor (Homo sapiens, UniProt P51681)
# By UniProt entry, the sequences of proteins in these tests, tags left out.
# UniProt P51681, whole entry: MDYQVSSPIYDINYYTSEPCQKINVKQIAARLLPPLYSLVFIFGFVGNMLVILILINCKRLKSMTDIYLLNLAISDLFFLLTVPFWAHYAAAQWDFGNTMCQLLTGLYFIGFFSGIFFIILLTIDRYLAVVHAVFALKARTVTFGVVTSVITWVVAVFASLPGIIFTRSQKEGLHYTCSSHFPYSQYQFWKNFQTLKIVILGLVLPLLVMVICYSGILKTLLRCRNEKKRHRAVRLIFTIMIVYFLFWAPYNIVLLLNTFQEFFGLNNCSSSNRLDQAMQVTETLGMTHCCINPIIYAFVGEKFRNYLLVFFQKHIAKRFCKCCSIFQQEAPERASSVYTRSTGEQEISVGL
# Assay: in vitro radioligand binding assay: inhibition of MIP-1α binding
# Conditions: displacement of 0.1 nM iodinated MIP-1α; membranes from Chinese hamster ovary cells expressing recombinant human CCR5; scintillation proximity; average if tested more than once
# Procedure: The ability of compounds to inhibit the binding of MIP-1α was assessed by an in vitro radioligand binding assay. Membranes were prepared from Chinese hamster ovary cells which expressed the recombinant human CCR5 receptor. These membranes were incubated with 0.1 nM iodinated MIP-1α, scintillation proximity beads and various concentrations of the compounds of the invention in 96-well plates. The amount of iodinated MIP-1α bound to the receptor was determined by scintillation counting. Competition curves were obtained for compounds and the concentration of compound which displaced 50% of bound iodinated MIP-1α was calculated (IC50).
# In Table XII the results are presented as Pic50 values. A Pic50 value is the negative log (to base 10) of the IC50 result, so an IC50 of 1 μM (that is 1×10^−6M) gives a Pic50 of 6. If a compound was tested more than once then the data below is an average of the probative tests results.
row,SMILES,pIC50
1,Cc1nnc(C(C)C)n1C1CC2CCC(C1)N2CCC(c1ccccc1)C1CCN(S(=O)(=O)C(F)(F)F)CC1 (centres unmarked),8.1
2,Cc1nnc(C(C)C)n1C1CCN(CC[C@@H](c2cc(F)cc(F)c2)C2CCOCC2)CC1,7.2
3,CS(=O)(=O)c1ccc(Cc2noc(C3CCN(CCC(c4ccccc4)C4CCN(S(C)(=O)=O)CC4)CC3)n2)cc1 (centres unmarked),8.8

# Results, then the compound that gave them:
row,pIC50,SMILES
1,7.3,CS(=O)(=O)N1CCC([C@@H](CCN2CCC(n3nnc4cc(C(F)(F)F)ccc43)CC2)c2cc(F)cc(F)c2)CC1
2,7.4,CS(=O)(=O)c1ccc2c(c1)ncn2C1CCN(CCC(c2ccccc2)N2CCN(c3ccc(F)cc3)CC2)CC1 (centres unmarked)

# — patent US7615555B2, “Piperidine derivatives as modulators of chemokine receptor CCR5” (AstraZeneca AB, priority 2004, dated 2009)
